# Data reported in ChEMBL document CHEMBL1201862, “PubChem BioAssay data set” (2004).
# By UniProt entry, the sequences of proteins in these tests, tags left out.
# UniProt Q14974, whole entry, looked up: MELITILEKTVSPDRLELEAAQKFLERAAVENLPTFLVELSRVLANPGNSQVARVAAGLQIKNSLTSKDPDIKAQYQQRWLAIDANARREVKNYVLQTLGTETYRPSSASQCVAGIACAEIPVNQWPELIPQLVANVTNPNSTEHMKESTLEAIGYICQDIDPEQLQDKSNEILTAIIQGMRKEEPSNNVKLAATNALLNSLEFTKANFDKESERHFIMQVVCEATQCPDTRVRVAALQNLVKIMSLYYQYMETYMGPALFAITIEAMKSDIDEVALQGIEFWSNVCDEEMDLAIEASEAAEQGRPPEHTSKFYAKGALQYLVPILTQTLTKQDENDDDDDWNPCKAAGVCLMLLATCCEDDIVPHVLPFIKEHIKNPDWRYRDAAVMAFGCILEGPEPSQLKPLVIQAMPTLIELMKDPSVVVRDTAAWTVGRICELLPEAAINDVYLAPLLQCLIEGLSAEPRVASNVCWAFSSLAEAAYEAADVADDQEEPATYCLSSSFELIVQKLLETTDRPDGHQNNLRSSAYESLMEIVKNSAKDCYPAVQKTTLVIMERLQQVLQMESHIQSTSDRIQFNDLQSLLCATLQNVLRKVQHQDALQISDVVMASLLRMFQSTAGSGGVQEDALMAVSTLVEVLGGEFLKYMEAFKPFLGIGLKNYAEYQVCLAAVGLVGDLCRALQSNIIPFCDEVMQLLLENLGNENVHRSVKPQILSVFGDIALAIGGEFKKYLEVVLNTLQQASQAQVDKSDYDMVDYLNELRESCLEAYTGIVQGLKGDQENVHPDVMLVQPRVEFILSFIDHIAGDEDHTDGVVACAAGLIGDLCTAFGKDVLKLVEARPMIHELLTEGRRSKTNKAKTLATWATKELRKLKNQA
# UniProt O95149, whole entry, looked up: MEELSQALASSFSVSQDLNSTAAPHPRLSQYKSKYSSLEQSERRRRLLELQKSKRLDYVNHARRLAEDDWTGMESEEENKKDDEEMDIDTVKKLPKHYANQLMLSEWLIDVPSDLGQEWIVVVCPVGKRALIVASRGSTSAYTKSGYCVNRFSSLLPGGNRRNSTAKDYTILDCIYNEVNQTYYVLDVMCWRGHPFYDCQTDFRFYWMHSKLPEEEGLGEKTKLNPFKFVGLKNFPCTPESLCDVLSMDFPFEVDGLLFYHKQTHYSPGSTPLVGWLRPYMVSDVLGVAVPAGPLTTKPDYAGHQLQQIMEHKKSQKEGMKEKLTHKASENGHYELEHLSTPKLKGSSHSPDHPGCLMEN
# The entries are a selection whose mix differs from that of the whole data set. These assays gave more results; the selection is not random. Calls of active or inactive are those of the source. The calls are words filed in the database; no cut-off is given here.
# Biological target: GTP-binding nuclear protein Ran/Importin subunit beta-1/Snurportin-1 (Homo sapiens) (UniProt P62826+Q14974+O95149)
# Test: qHTS Assay for Inhibitors of RanGTP induced Rango (Ran-regulated importin-beta cargo) - Importin beta complex dissociation. [Related pubchem assays (depositor defined):AID540262]
# Type: functional
row,Structure (SMILES),Potency
1,O=C(O)C(O)c1ccccc1 (configuration not stated),inactive
2,O=C(O)[C@@H](O)c1ccccc1,inactive
